The record followed here is PubChem BioAssay AID637 (SRMLSC, 2007).

Only a part is listed here, and it is no random draw. The source made the active and inactive calls. Cut-off read from the data, not from the text of the source: active = inhibition above about 30%; inactive = the rest.

The nature of this test: growth suppression of yeast trafficking mutant, preliminary HTS, modulators of trafficking downstream of Golgi apparatus project, 1536-format plate, OD 615 nm (AID 637). Conditions: yeast transport mutant growth, absorbance 615 nm, 18 h; stronger effect = higher value.
Regarding `CP(=O)(Nc1ccc2c(c1)OCCO2)Oc1ccccc1` (stereo not given), the inhibition (in general, the share of the control response that was lost under treatment) is inactive: 3.83%.
As for `CN(C)CCOC(=O)C(O)(c1ccccc1)C1CCCCC1` (stereo not given), the inhibition is inactive: 2.95%.
On to `CP(=O)(Nc1ccccn1)Oc1ccccc1` (stereo not given), for which the inhibition is inactive: 6.07%.
Regarding `CP(=S)(Nn1cnnc1)Oc1ccccc1` (stereo not given), the inhibition is inactive: 0.48%.
As for `Cc1ccc(C)c(NP(C)(=O)Oc2ccccc2)c1` (stereo not given), the inhibition was inactive: 7%.
